The results in this text go back to ChEMBL document CHEMBL5247638, “From rational design to serendipity: Discovery of novel thiosemicarbazones as potent trypanocidal compounds” (Eur J Med Chem, 2022).

Sequences of proteins named here, by UniProt entry; tags and fusion partners are left off. A change or cut given only in a name is not applied to a line headed by its entry.
UniProt P25779: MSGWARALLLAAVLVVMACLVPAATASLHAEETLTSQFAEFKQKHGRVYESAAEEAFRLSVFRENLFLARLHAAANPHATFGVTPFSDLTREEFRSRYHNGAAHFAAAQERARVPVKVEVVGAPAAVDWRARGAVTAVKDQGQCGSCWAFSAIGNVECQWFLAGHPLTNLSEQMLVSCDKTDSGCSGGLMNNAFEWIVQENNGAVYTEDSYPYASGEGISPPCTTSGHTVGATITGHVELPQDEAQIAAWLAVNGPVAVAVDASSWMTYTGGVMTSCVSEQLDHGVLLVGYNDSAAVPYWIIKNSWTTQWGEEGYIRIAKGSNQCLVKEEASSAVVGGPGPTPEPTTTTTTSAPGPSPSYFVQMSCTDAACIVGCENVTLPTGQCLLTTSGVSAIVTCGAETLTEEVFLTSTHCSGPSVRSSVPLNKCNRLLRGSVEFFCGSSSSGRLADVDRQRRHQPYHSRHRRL

SMILES strings stand for the structures.

Assay [1] deals with Cruzipain (Trypanosoma cruzi) (UniProt P25779). Kind of assay: Inhibition of Trypanosoma cruzi cruzain using Z-FR-AMC as substrate at 100 uM by fluorimetric analysis relative to control.
Assay [2] has the same target. The assay is described as follows: Inhibition of Trypanosoma cruzi cruzain using Z-FR-AMC as substrate at 100 uM preincubated for 10 mins followed by substrate addition by fluorimetric analysis relative to control.
Assay [3] deals with Trypanosoma brucei. Kind of assay: Inhibition of TbrCatL using Z-FR-AMC as substrate at 100 uM preincubated for 10 mins followed by substrate addition by fluorimetric analysis relative to control.

Broadly, the inhibition is the percentage by which the read-out fell short of the control. A higher inhibition goes with a strong effect. With `Clc1cc(Br)ccc1-c1ccc(CNCCN2CCOCC2)o1`, the figures for the inhibition in assay [1] and in assay [2] were 63% and 73%, respectively.
In the case of `OCCNCc1ccc(-c2ccc(Br)cc2Cl)o1`, the values for the inhibition in assay [1] and in assay [2] were 63% and 73%, respectively.
`OCC(CO)NCc1ccc(-c2ccc(Br)cc2Cl)o1`: the inhibition is 63% in assay [1], 67% in assay [2] and 63% in assay [3].
`OCC(CO)NCc1ccc(-c2ccc(Cl)c(C(F)(F)F)c2)o1`: the results for the inhibition in assay [1] and in assay [2] were 66% and 44%, respectively.
